Assay results as given in PubChem BioAssay AID2235 (The Scripps Research Institute Molecular Screening Center, 2010).
This is a selection; strong and weak results do not stand in their true shares. Active and inactive are the calls of the source.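 Rule for the calls: active = inhibition above the mean inhibition of all tested compounds plus 3 SD, computed separately for each screening campaign (cut at about 15% in these data); inactive = the rest.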

Protein sequences, listed by entry. Tags and fused reporters are not part of them.
UniProt P62136, whole entry, looked up: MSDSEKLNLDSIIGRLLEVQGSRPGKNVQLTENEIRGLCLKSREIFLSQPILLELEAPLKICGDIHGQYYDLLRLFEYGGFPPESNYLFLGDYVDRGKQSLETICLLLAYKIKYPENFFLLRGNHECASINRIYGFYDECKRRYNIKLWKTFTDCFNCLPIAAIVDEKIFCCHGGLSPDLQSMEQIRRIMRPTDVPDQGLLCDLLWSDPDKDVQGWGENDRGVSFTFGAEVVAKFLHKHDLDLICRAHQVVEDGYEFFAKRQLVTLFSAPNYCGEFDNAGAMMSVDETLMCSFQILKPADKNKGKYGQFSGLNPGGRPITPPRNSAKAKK

biological target: Serine/threonine-protein phosphatase PP1-alpha catalytic subunit (Homo sapiens) (UniProt P62136); test: PP1-alpha phosphatase inhibitors, primary screen, counter-screen for PP5 inhibitor project, biochemical, fluorescence, OMFP substrate, single point (AID 2235); conditions: purified PP1alpha, at 6.7 µM, active compounds read high

| Compound | inhibition |
| --- | --- |
| CN(C)C1(CNC(=O)c2ccc(S(C)(=O)=O)cc2)CCCCC1 | inactive: -4.02% |
| O=C(/C=C/c1ccccc1)OC1CN2CCC1CC2 (stereo not given) | inactive: 4.39% |
| Cc1ccc(C(=O)OC2CN3CCC2CC3)cc1 (stereo not given) | inactive: -0.65% |
| CC1CCC(C(C)C)C(OP(=O)(Nc2ccccn2)c2ccccc2)C1 (stereo not given) | inactive: 2.63% |
| Cc1nn(-c2ccccc2)c2c1P(=O)(N1CCOCC1)N(C)C(c1ccccc1)=N2 (stereo not given) | inactive: -2.61% |
| Nc1cccc([As](=O)(O)c2ccccc2)c1 | inactive: -3.33% |
| Cc1ccc(OCC(=O)OC2CN3CCC2CC3)cc1 (stereo not given) | inactive: -1.09% |
| O=[As](O)(c1cccs1)c1cccs1 | inactive: -5.45% |
| NS(=O)(=O)c1cccc(NC(=O)COC(=O)C(O)(c2ccccc2)c2ccccc2)c1 | inactive: -3.3% |
| O=P1(Nc2ccc(Br)cn2)COc2ccccc2OC1 | inactive: 2.27% |
| O=P1(Nc2ncccn2)COc2ccccc2OC1 | inactive: -2.43% |
| CC(C)(C)C(=O)NC(Sc1ncccn1)C(Cl)(Cl)Cl (stereo not given) | inactive: -2.63% |
| Clc1n[nH]nc1-c1nn[nH][15n]1 | inactive: -1.77% |
| CCOP(=O)(NC(=NC(C)c1ccccc1)NC(C)c1ccccc1)OCC (stereo not given) | inactive: 1.94% |
| CCC1=CC2Cc3nc4ccc(Cl)cc4c(N)c3C(C1)C2 (stereo not given) | inactive: -0.88% |
| O=P1(Nc2ccccn2)COc2ccccc2OC1 | inactive: -6.86% |
| CCOP(=O)(Nc1ccc(C)cn1)OCC | inactive: 2.54% |
| CN(CCCl)Cc1cc(Cl)c(NC2=NCCN2)c(Cl)c1 | inactive: -1.34% |
| CN(C(=O)Cc1ccc(Cl)c(Cl)c1)[C@@H]1CCCC[C@H]1N1CCCC1 | inactive: -1.91% |
| CC(C)/C=N\N=C(\N)N[N+](=O)[O-] | inactive: -1.75% |
| CC1(CBr)Cn2c(nc3ccccc3c2=O)S1 (stereo not given) | inactive: 1.46% |
| O=[As](O)(c1ccccc1Br)c1ccccc1Br | inactive: -0.24% |
| COc1ccccc1CNC(=O)COC(=O)C(O)(c1ccccc1)c1ccccc1 | inactive: 4.04% |
| Cc1cccc(OCC(=O)OC2CN3CCC2CC3)c1 (stereo not given) | inactive: 0.88% |
| O=[As](O)(c1cccc(O)c1)c1cccc(O)c1 | inactive: -3.9% |

| Compound | inhibition |
| --- | --- |
| O=C(OC1CN2CCC1CC2)c1ccc(Cl)cc1 (stereo not given) | inactive: -0.48% |
| CS(=O)(=O)c1ccc(Cl)c(NC(=O)COC(=O)C(O)(c2ccccc2)c2ccccc2)c1 | inactive: -1.07% |
| O=[As](O)(O)c1cccnc1 | inactive: -1.49% |
| COc1cc(C(=O)NCC2(N3CCOCC3)CCCCC2)cc(Cl)c1OC(C)C | inactive: -1.58% |
| CCOP(=O)(Nc1cccc2ccccc12)OCC | inactive: 0.67% |
| COc1cc(C2NCCC3(OCCO3)C2(C)C)cc(OC)c1OC (stereo not given) | inactive: 0% |
| Cc1ccc(NCCc2c([N+](=O)[O-])cc([N+](=O)[O-])cc2[N+](=O)[O-])cc1 | inactive: -6.6% |
| Nc1cccc2c([As](=O)(O)O)cccc12 | inactive: 14.8% |
| CCCOP(=S)(Nc1nc(N)cc(=O)[nH]1)OCCC | inactive: 2.24% |
| O=C(O)COc1ccc([As](=O)(O)O)cc1[N+](=O)[O-] | inactive: 2.08% |
| Nc1ccccc1[As](=O)(O)c1ccccc1 | inactive: -3.32% |
| O=P(Nc1nccs1)(Oc1ccccc1)Oc1ccccc1 | inactive: -1.27% |
| O=P(Nc1nccs1)(c1ccccc1)c1nc2ccccc2s1 (stereo not given) | inactive: 11.2% |
| CCOP1(=S)c2c(C)nn(CCC#N)c2N=C(c2ccccc2F)N1C (stereo not given) | inactive: -1.32% |
| CS(=O)(=O)c1cc([N+](=O)[O-])c2no[n+]([O-])c2c1 | inactive: -0.97% |
| CCOP1(=S)c2c(C)nn(CCC#N)c2N=C(c2ccc(F)cc2)N1C (stereo not given) | inactive: -2.63% |
| CN(C(=O)Cc1ccccc1)[C@@H]1CC[C@]2(CCCO2)C[C@H]1N1CCCC1 | inactive: -0.84% |
| N#CCCN(C(=O)COC(=O)C(O)(c1ccccc1)c1ccccc1)c1ccc(F)cc1 | inactive: 1.01% |
| CN(C(=O)Cc1ccc(Cl)c(Cl)c1)[C@H]1CC[C@@]2(CCCO2)C[C@@H]1N1CCCC1 | inactive: -0.63% |
| O=[N+]([O-])c1ccc2c(c1)nnn2O | inactive: -2.47% |
| CN(C)C(=O)c1cc([N+](=O)[O-])cc2c1-c1c(cc([N+](=O)[O-])cc1[N+](=O)[O-])C2=O | inactive: -0.21% |
| NC(=O)Nc1ccc([As](=O)(O)O)cc1 | inactive: 2.38% |
| Cc1ccc(OP(=O)(Nc2ccc([N+](=O)[O-])cn2)Oc2ccc(C)cc2)cc1 | inactive: -0.78% |
| Cc1ccc2nc3c(c(C)c2c1)CC(C(Cl)Cl)S3 (stereo not given) | inactive: 0.73% |
| COc1cc(C(=O)NCC2(N3CCOCC3)CCCCC2)ccc1OCC(C)C | inactive: -1.61% |
